Tested on: GSNOR
Assay: GSNOR immunofluorescence in lung sections of treated SS mice
Conditions: 3 weeks; for decrease of GSNOR staining in lung sections: hE-HMGB1-BP 2.72 mg/kg/d, KYC 3 mg/kg/d; for GSNOR staining in alveolar microvessels versus untreated AA mice: hE-HMGB1-BP or KYC
Description: The right main bronchus was ligated with silk at the carina and snap-frozen in liquid nitrogen for immunoblot analysis after resection below the ligature. The trachea was then cannulated with an Instech Solomon (20G) stainless steel feeding tube (Plymouth Meeting, PA). After the trachea was securely ligated with silk, the left lobe was inflated with 10% neutral buffered formalin at 25 cm-H2O (2.4 kPa). After 1 h, the fixed lung was stored in 10% buffered formalin for 24 h and then embedded in paraffin for histology. Lung sections (5 um) were mounted on SuperFrost Plus-coated slides (Denville Scientific, Metuchen, NJ). Slides were deparaffinized, and sections stained with hematoxylin and eosin (H&E; Sigma, St. Louis, MO; catalog #MHS16 and HT110116) or immunostained for CD31 (R&D Systems, Minneapolis, MN; Catalog #AF3628) and GSNOR (Proteintech Group, Rosemont, IL; Catalog #11051-1-AP) for co-localization studies. Four to five immunofluorescence images were randomly captured for each lung section, the fluorescence intensities were analyzed for outliers and then averaged, and the average intensity was plotted as a single data point for each mouse. Protein SNOs were analyzed by Pierce S-Nitrosylation Western Blot Kit (Thermo Fisher, Milwaukee, WI; Catalog #90105). All other mentioned reagents and chemicals were purchased from Thermo Fisher (Milwaukee, WI).
The right main lung bronchus was ligated with silk at the carina and snap-frozen in liquid nitrogen for immunoblot analysis after resection below the ligature. The trachea was cannulated using an Instech Solomon (20G) stainless steel feeding tube (Plymouth Meeting, PA). After securely ligating the trachea with silk, the left lobe was inflated with 10% neutral buffered formalin at 25 cm-H2O (2.4 kPa). After one hour, the fixed lung was stored in 10% buffered formalin for 24 h and then embedded in paraffin for histology. Lung sections (5 μm) were mounted on SuperFrost Plus-coated slides (Denville Scientific, Metuchen, NJ). Slides were deparaffinized, and sections stained with hematoxylin and eosin (H&E; Sigma, St. Louis, MO; catalog #MHS16 and HT110116) for morphometric studies or immunostained for CD31 with a polyclonal goat IgG antibody (R&D Systems, Minneapolis, MN; Catalog #AF3628) and visualized with Alexa Fluor Plus 488-conjugated donkey anti-goat IgG (ThermoFisher, Milwaukee, WI; Catalog #A32814TR) and for GSNOR with a rabbit anti-GSNOR polyclonal antibody (Proteintech Group, Rosemont, IL; Catalog #11051-1-AP) and visualized with an Alexa Fluor 546-conjugated donkey anti-rabbit IgG (ThermoFisher, Milwaukee, WI; Catalog #A10040) for co-localization studies. Lung CD31 and GSNOR immunofluorescent images were captured using a Zeiss Axioimager Z1 microscope with Zeiss axiocam HRC 13megapixel camera (⅔″ CCD sensor). […]

Row | Structure (SMILES) | decrease of GSNOR staining in lung sections | GSNOR staining in alveolar microvessels versus untreated AA mice
1 | CC[C@H](C)[C@H](NC(=O)CNC(=O)[C@H](CCCCN)NC(=O)[C@@H](NC(=O)[C@H](CC(=O)O)NC(=O)[C@H](Cc1ccccc1)NC(=O)[C@H](CC(N)=O)NC(=O)[C@H](CC(N)=O)NC(=O)[C@H](C)NC(=O)[C@H](CO)NC(=O)[C@H](Cc1c[nH]cn1)NC(=O)[C@H](C)NC(=O)CNC(=O)CNC(=O)[C@H](CCCNC(=N)N)NC(=O)[C@H](CC(C)C)NC(=O)[C@H](CC(C)C)NC(=O)[C@H](CCCNC(=N)N)NC(=O)[C@H](CCCCN)NC(=O)[C@H](CCCNC(=N)N)NC(=O)[C@H](CC(C)C)NC(=O)[C@H](CCCCN)NC(=O)[C@H](CCCNC(=N)N)NC(=O)[C@H](CC(C)C)NC(C)=O)C(C)C)C(N)=O | 64% | not reduced to the levels observed in these same microvessels in untreated AA mice
2 | CC(=O)N[C@@H](CCCCN)C(=O)N[C@@H](Cc1ccc(O)cc1)C(=O)N[C@@H](CS)C(N)=O | 85% | not reduced to the levels observed in these same microvessels in untreated AA mice

From patent US20260382690A1, “Dual-Domain Peptide for Depleting HMGB1 from the Circulation via Liver HSPG System” (published 2026)
